## Membrane permeability of cyclic peptides

Data: CycPeptMPDB; original report Furukawa et al. 2016, doi:10.1021/acs.jmedchem.6b01246.

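Lipid, pH, incubation time, direction and concentration are not recorded in the data file. The list need not hold all peptides of the study. Peptides that the database sets to -10, its floor, are left out.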

PAMPA measures passive passage through an artificial lipid membrane. Caco-2 values are permeabilities across monolayers of Caco-2 human intestinal cells. Permeability is given as log10 of P in cm/s; higher (less negative) is more permeable. Cells with "n/a" have no entry in this list.

structure (SMILES),PAMPA (log10 cm/s),Caco-2 (log10 cm/s)
CCCC[C@@H]1NC(=O)[C@H](CC(C)C)N(C)C(=O)CN(CCc2cccnc2)C(=O)[C@H](Cc2ccc3ccccc3c2)NC(=O)CN(Cc2ccc(Cl)cc2)C(=O)[C@H]2CCCN2C1=O,-8.45,n/a
CCCC[C@@H]1NC(=O)[C@H](CC(C)C)N(C)C(=O)CN(CCOc2ccccc2)C(=O)[C@H](C)NC(=O)CN(CC)C(=O)[C@H]2CCCN2C1=O,-5.46,n/a
CCCC[C@@H]1NC(=O)[C@H](CC(C)C)N(C)C(=O)CN(Cc2ccccc2)C(=O)[C@H](Cc2ccc3ccccc3c2)NC(=O)CN(Cc2ccc3c(c2)OCO3)C(=O)[C@H]2CCCN2C1=O,-8.53,n/a
CCCC[C@@H]1NC(=O)[C@H](CC(C)C)N(C)C(=O)CN(CCOC)C(=O)[C@H](Cc2ccccc2)NC(=O)CN(Cc2ccc(Cl)cc2)C(=O)[C@H]2CCCN2C1=O,-5.94,n/a
CCCC[C@@H]1NC(=O)[C@H](CC(C)C)N(C)C(=O)CN(CCCc2ccccc2)C(=O)[C@H](C)NC(=O)CN(Cc2ccc(Cl)cc2)C(=O)[C@H]2CCCN2C1=O,-6.00,n/a
CCCC[C@@H]1NC(=O)[C@H](CC(C)C)N(C)C(=O)CN(CCc2cccnc2)C(=O)[C@H](Cc2ccccc2)NC(=O)CN(CCCOC(C)C)C(=O)[C@H]2CCCN2C1=O,-5.51,-5.89
CCCC[C@@H]1NC(=O)[C@H](CC(C)C)N(C)C(=O)CN(CCOC)C(=O)[C@H](Cc2ccccc2)NC(=O)CN(CCC)C(=O)[C@H]2CCCN2C1=O,-5.12,n/a
CCCC[C@@H]1NC(=O)[C@H](CC(C)C)N(C)C(=O)CN(CCc2cccnc2)C(=O)[C@H](CC(C)C)NC(=O)CN(Cc2ccc3c(c2)OCO3)C(=O)[C@H]2CCCN2C1=O,-5.30,n/a
CCCC[C@@H]1NC(=O)[C@H](CC(C)C)N(C)C(=O)CN(CC2CCOCC2)C(=O)[C@H](Cc2ccc3ccccc3c2)NC(=O)CN(CCN2CCOCC2)C(=O)[C@H]2CCCN2C1=O,-5.84,n/a
CCCC[C@@H]1NC(=O)[C@H](CC(C)C)N(C)C(=O)CN(CCCN2CCCC2=O)C(=O)[C@H](C)NC(=O)CN(Cc2ccc3c(c2)OCO3)C(=O)[C@H]2CCCN2C1=O,-7.04,n/a
CCCC[C@@H]1NC(=O)[C@H](CC(C)C)N(C)C(=O)CN(CCCc2cnn(C)c2)C(=O)[C@H](CC(C)C)NC(=O)CN(CC(C)C)C(=O)[C@H]2CCCN2C1=O,-5.30,n/a
CCCC[C@@H]1NC(=O)[C@H](CC(C)C)N(C)C(=O)CN(CC2CCCCC2)C(=O)[C@H](CC(C)C)NC(=O)CN(CC)C(=O)[C@H]2CCCN2C1=O,-5.17,n/a
CCCC[C@@H]1NC(=O)[C@H](CC(C)C)N(C)C(=O)CN(CCCc2ccccc2)C(=O)[C@H](CC(C)C)NC(=O)CN(CC(C)C)C(=O)[C@H]2CCCN2C1=O,-6.02,n/a
CCCC[C@@H]1NC(=O)[C@H](CC(C)C)N(C)C(=O)CN(CCOC)C(=O)[C@H](Cc2ccc3ccccc3c2)NC(=O)CN(CCN2CCOCC2)C(=O)[C@H]2CCCN2C1=O,-5.73,-6.11
CCCC[C@@H]1NC(=O)[C@H](CC(C)C)N(C)C(=O)CN(CCCN2CCCC2=O)C(=O)[C@H](Cc2ccccc2)NC(=O)CN(CCCCc2ccccc2)C(=O)[C@H]2CCCN2C1=O,-6.12,n/a
CCCC[C@@H]1NC(=O)[C@H](CC(C)C)N(C)C(=O)CN(CC2CCOCC2)C(=O)[C@H](C)NC(=O)CN(CCN2CCOCC2)C(=O)[C@H]2CCCN2C1=O,-8.28,n/a
CCCC[C@@H]1NC(=O)[C@H](CC(C)C)N(C)C(=O)CN(CCc2cccnc2)C(=O)[C@H](Cc2ccc3ccccc3c2)NC(=O)CN(CCCOC(C)C)C(=O)[C@H]2CCCN2C1=O,-5.32,n/a
CCCC[C@@H]1NC(=O)[C@H](CC(C)C)N(C)C(=O)CN(CC2CCOCC2)C(=O)[C@H](Cc2ccc3ccccc3c2)NC(=O)CN(CCCOC(C)C)C(=O)[C@H]2CCCN2C1=O,-5.28,n/a
CCCC[C@@H]1NC(=O)[C@H](CC(C)C)N(C)C(=O)CN(CCc2cccnc2)C(=O)[C@H](CC(C)C)NC(=O)CN(CCCOC(C)C)C(=O)[C@H]2CCCN2C1=O,-5.48,n/a
CCCC[C@@H]1NC(=O)[C@H](CC(C)C)N(C)C(=O)CN(CC2CCOCC2)C(=O)[C@H](Cc2ccccc2)NC(=O)CN(Cc2ccccc2Cn2cccn2)C(=O)[C@H]2CCCN2C1=O,-5.40,n/a
CCCC[C@@H]1NC(=O)[C@H](CC(C)C)N(C)C(=O)CN(CCCc2cnn(C)c2)C(=O)[C@H](C)NC(=O)CN(CCN2CCOCC2)C(=O)[C@H]2CCCN2C1=O,-8.20,n/a
CCCC[C@@H]1NC(=O)[C@H](CC(C)C)N(C)C(=O)CN(CC2CCOCC2)C(=O)[C@H](CC(C)C)NC(=O)CN(CC(C)C)C(=O)[C@H]2CCCN2C1=O,-5.07,n/a
CCCC[C@@H]1NC(=O)[C@H](CC(C)C)N(C)C(=O)CN(CCOc2ccccc2)C(=O)[C@H](C)NC(=O)CN(CCC)C(=O)[C@H]2CCCN2C1=O,-5.22,n/a

Extract of 3 entries:

structure (SMILES)	PAMPA (log10 cm/s)	Caco-2 (log10 cm/s)
CCCC[C@@H]1NC(=O)[C@H](CC(C)C)N(C)C(=O)CN(CCOc2ccccc2)C(=O)[C@H](C)NC(=O)CN(CCC)C(=O)[C@H]2CCCN2C1=O	-5.22	n/a
CCCC[C@@H]1NC(=O)[C@H](CC(C)C)N(C)C(=O)CN(CCCc2cnn(C)c2)C(=O)[C@H](C)NC(=O)CN(CCN2CCOCC2)C(=O)[C@H]2CCCN2C1=O	-8.20	n/a
CCCC[C@@H]1NC(=O)[C@H](CC(C)C)N(C)C(=O)CN(CCc2cccnc2)C(=O)[C@H](Cc2ccc3ccccc3c2)NC(=O)CN(CCCOC(C)C)C(=O)[C@H]2CCCN2C1=O	-5.32	n/a